Measurements taken from PubChem BioAssay AID1044 (The Scripps Research Institute Molecular Screening Center, 2008).
The list shows a part of the results, in another mix than the full data. Activity calls are given as the source filed them. No stated cut-off is given here; in the data, active means activation above about 80%; inactive means the rest.

By UniProt entry, the sequences of proteins in these tests, tags left out.
UniProt P21453, whole entry: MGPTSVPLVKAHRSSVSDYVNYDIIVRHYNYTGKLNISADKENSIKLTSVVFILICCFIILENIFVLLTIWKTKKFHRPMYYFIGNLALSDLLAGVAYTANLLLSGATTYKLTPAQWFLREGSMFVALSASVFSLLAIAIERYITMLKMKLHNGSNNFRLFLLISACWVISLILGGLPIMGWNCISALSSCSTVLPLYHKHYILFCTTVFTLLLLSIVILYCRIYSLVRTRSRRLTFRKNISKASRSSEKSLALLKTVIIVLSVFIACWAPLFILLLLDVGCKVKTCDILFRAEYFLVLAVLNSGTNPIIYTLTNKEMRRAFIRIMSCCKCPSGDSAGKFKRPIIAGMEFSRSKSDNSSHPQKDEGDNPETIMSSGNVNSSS

target: Sphingosine 1-phosphate receptor 1 (Homo sapiens) (UniProt P21453); test: S1P1 (human) receptor agonism (AID 1044); conditions: S1P1 agonist cell-based reporter assay; at 4.5 µM; active compounds read high

| Structure (SMILES) | activation |
| --- | --- |
| Cc1ccccc1NC1CC(C)(C)NC(C)(C)C1 | inactive: 3.32% |
